US7439223

Key:
nucleophosmin/B23 [1] = assay: cell-based or functional assay
nucleophosmin/B23 [2] = assay: dissociation constant; method not described (FIG. 4)

Substance	concentration at which there was a 50% decrease in cell viability (Ras-3T3 cells, 24 hours) (nucleophosmin/B23 [1])	Kd (nucleophosmin/B23 [2])
Rev peptide ([…])	95.1 µM	–
Rev peptide ([…]) (peptide; other documents disagree on this pair)	–	82 nM
